These results are taken from patent US20070219767A1, “ATOMIC COORDINATES OF ALBUMIN DRUG COMPLEXES AND METHOD OF USE OF PHARMACEUTICAL DEVELOPMENT” (priority 2003, published 2007).

Sequences of proteins named here, by UniProt entry; tags and fusion partners are left off. Residues count along the entry.
UniProt P02768, 25-609: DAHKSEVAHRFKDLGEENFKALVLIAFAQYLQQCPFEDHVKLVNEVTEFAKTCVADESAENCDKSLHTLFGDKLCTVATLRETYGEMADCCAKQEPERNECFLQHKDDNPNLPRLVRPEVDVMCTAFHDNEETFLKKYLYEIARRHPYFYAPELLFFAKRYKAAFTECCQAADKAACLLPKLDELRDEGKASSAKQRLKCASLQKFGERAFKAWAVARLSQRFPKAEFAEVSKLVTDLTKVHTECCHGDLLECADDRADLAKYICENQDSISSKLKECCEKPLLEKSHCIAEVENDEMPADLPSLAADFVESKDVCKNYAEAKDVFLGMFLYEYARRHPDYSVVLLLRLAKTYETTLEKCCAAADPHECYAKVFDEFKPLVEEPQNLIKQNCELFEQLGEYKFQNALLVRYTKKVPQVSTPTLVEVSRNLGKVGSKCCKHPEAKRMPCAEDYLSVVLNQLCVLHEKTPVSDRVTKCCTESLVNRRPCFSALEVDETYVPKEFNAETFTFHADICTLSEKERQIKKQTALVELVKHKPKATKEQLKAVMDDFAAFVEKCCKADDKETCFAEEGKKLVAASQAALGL

The target of this test is human serum albumin (Homo sapiens, UniProt P02768). Nature of the test: X-ray crystallography of human serum albumin/drug complexes: binding location. The conditions noted are these: Table II, Phase II; refined coordinates; listed residues within 5 Å of bound ligand.

On to `NS(=O)(=O)c1cc2c(cc1Cl)N=CNS2(=O)=O` [Chlorothiazide], for which the “Binding site of the Drug-Albumin Complex (site heading the list of contacting residues)” value is on record as “Site IB, R114, L115, R117, Y138, E141, I142, R145, H146, F149,”.
